Only a part is listed here, and it is no random draw. Activity calls are given as the source filed them. Cut-off read from the data, not from the text of the source: active = inhibition above about 34% (passing the limit was not always enough); inactive = the rest.

The chains behind the UniProt entries cited, without tags or fusion partners.
UniProt P53350, whole entry: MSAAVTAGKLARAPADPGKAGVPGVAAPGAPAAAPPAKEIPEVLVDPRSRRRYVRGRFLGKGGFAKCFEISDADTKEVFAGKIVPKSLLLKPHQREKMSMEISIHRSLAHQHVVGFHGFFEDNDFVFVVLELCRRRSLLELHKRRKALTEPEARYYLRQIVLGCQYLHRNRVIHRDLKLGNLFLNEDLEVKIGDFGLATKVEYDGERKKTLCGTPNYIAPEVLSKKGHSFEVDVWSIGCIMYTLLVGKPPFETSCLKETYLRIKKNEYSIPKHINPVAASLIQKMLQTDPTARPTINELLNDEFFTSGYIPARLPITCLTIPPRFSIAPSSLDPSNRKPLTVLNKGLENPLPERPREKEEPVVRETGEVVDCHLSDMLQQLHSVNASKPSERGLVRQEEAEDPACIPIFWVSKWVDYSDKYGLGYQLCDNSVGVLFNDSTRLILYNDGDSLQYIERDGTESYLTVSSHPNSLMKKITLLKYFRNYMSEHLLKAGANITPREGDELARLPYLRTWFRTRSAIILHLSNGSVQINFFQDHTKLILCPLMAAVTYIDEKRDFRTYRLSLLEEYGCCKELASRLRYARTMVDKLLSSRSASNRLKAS

This assay addresses Serine/threonine-protein kinase PLK1 (Homo sapiens) (UniProt P53350). Briefly: blockers of phosphopeptide binding to Plk1 PBD – biochemical, fluorescence polarization, primary screen (AID 693). The following applies: stronger effect = higher value,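 tested at about 20 µM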. For orientation: Polarisation of emitted light reports the rotation of a fluorescent probe.
What is called inhibition is the change of the read-out against control, counted positive when it falls. For `N/C(=N\O)c1c(N)no[n+]1[O-]`, the inhibition is inactive: -10.9%.
As for `c1ccc(CN2CCC(Nc3ccccc3)CC2)cc1`, the figure is inactive: -0.66%; as for `CCC(CO)(C(=O)OC1CN2CCC1CC2)c1ccccc1` (stereo not given), inactive: 12.5%.
As for `CCOc1ncccc1C(=O)NCC1(N2CCOCC2)CCCCC1`, the figure is inactive: -11.8%; as for `O=C(NCC1(N2CCOCC2)CCCCC1)c1cc2ccccc2o1`, inactive: -25.2%; as for `O=C(OC1CN2CCC1CC2)C1c2ccccc2Oc2ccccc21` (stereo not given), inactive: -13.2%.
For the molecule `COc1ccc(NC2CCN(CCc3ccccc3)CC2)c(OC)c1`, the inhibition is inactive: 21.7%.
As for `O=C(NCC1(N2CCOCC2)CCCCC1)c1cc(=O)[nH]c2ccccc12`, the figure is inactive: 17.6%.
In the case of `N#CC1(Nc2ccccc2)CCN(CCc2ccccc2)CC1` it was inactive: 3.86%; in that of `CN1CCC(Nc2cccc(F)c2)CC1`, inactive: 1.68%.
